For 1 molecule, IC50 results are on record in patent US9376387B2 (priority 2013, dated 2016).

The chains behind the UniProt entries cited, without tags or fusion partners. Where a name states a change or a piece, a line headed by the entry shows the natural chain unless it says otherwise.
UniProt P22303: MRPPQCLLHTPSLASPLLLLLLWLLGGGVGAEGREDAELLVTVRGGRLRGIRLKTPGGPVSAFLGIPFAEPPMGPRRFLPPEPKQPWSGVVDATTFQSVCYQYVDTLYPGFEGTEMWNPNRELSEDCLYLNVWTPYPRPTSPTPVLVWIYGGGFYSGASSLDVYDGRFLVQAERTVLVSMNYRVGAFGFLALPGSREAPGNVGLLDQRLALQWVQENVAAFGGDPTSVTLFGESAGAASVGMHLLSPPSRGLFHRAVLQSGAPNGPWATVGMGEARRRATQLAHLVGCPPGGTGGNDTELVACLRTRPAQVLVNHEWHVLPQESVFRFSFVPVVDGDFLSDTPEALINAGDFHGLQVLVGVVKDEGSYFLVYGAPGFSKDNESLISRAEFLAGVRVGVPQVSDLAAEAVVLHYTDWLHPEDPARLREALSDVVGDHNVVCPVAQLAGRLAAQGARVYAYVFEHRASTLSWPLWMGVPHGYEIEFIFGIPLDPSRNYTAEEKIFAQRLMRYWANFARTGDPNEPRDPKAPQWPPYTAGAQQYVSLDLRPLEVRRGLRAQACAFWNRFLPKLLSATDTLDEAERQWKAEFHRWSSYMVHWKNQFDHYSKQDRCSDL

The assay addresses hAChE (human erythrocyte membranes as a AChE source) (Homo sapiens, UniProt P22303). The experiment in a line: acetylcholinesterase (AChE) activity, modified Ellman method. Conditions: read-out: hAChE IC50, acetylthiocholine iodide substrate, pH=7.4. The assay is classed as biochemical. In general terms: Ellman's reagent forms a yellow product with free thiols.

In general, IC50 refers to the concentration that inhibits the measured activity by half. On to `COc1cc2c(cc1OC)C(=O)C(Cc1cc[n+](Cc3ccccc3C)cc1C(C)=O)C2.[Br-]` (stereo not shown) [Compound 142, 2-[[3-acetyl-1-(o-tolylmethyl)pyridin-1-ium-4-yl]methyl]-5,6-dimethoxy-indan-1-one bromide], for which the IC50 stood at 8.8 nM.
